The text below walks through data of paper PMC8753982 (ACS chemical neuroscience, 2019).

The chains behind the UniProt entries cited, without tags or fusion partners. Residues count along the entry.
UniProt P31424, 21-1203: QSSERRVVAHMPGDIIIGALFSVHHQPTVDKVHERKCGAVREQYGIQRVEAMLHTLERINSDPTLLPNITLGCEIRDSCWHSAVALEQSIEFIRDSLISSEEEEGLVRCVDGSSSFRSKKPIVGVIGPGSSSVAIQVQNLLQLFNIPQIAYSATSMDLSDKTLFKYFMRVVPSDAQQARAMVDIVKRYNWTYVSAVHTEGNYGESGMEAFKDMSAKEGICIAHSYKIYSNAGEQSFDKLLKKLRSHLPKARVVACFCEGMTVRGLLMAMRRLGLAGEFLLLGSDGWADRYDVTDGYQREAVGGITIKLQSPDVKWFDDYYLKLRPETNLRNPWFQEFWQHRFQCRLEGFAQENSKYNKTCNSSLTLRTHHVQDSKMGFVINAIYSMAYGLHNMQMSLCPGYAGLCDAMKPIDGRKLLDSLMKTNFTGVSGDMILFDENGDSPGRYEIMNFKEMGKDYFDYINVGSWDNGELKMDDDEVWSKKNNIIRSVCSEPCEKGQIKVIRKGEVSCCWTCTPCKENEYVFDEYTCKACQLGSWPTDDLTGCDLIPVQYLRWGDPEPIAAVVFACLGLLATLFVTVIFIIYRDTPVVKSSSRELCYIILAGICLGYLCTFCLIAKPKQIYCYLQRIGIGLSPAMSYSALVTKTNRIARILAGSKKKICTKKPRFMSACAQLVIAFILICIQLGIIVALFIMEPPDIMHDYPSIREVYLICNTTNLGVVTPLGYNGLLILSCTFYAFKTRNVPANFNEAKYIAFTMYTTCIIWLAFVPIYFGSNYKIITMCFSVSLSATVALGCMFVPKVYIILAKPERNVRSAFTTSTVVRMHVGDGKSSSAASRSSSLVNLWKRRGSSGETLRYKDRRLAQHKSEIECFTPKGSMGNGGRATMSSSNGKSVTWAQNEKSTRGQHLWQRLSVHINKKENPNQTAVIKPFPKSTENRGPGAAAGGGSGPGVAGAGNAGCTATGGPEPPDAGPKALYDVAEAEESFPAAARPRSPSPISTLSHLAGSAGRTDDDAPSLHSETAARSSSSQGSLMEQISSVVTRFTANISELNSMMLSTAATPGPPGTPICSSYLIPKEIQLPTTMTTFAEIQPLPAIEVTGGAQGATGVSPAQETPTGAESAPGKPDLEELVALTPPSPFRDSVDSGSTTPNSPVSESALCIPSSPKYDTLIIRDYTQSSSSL

The term IC50 denotes the concentration at which inhibition is half-maximal. A high value points to a need for much substance.

Assay in all cases: Fluorescence-based Ca2+ flux assay with a microplate reader
Common to all, as to assay type: cell-based
In general terms: A change in cytosolic calcium serves as a functional read-out for many receptors and channels.

The target of experiment [1] is endogenous mGlu5 in striatal neurons (Rattus norvegicus, UniProt P31424).
For experiment [2], the target named is endogenous mGlu5 in hippocampal neurons (Rattus norvegicus, UniProt P31424).
For experiment [3], the target named is endogenous mGlu5 in cortical neurons (Rattus norvegicus, UniProt P31424).

The structures appear in SMILES notation.

On to `Cc1cccc(C#Cc2ccccc2)n1` [MPEP, 2-methyl-6-(phenylethynyl)pyridine], for which the IC50 was determined as 1130 ± 360 nM in experiment [1], 41.7 ± 4.7 nM in experiment [2] and 119 ± 34.1 nM in experiment [3].
